Measurements published in published antibiotic growth screens (doi:10.1038/s41589-023-01349-8).
The list shows a part of the results.

Each compound was assayed on A. baumannii ATCC 17978 (assay: relative growth (fraction of control); higher = less inhibition). Conditions: 50 µM.

First: O=C(C[C@@H]1C[C@H]2c3cc(NC(=O)Nc4ccccc4)ccc3O[C@H]2[C@@H](CO)O1)NCCN1CCCCC1
Second: O=C(CN1CCOCC1)NCC[C@H]1CC[C@H](NC(=O)Nc2ccccc2)[C@@H](CO)O1
The relative growth of the first is higher: 0.93 for the first, 0.925 for the second.

Going from NCCCCCNC(=O)[C@H]1C[C@H]2C(=O)NCC(=O)N2[C@H]1c1cccc(OCCO)c1 to C[N+](C)(C)CCCCCCNC(=O)[C@H]1C[C@H]2C(=O)N3CCC[C@H]3C(=O)N2[C@H]1c1cccc(OCCO)c1, the relative growth falls from 1.08 to 1.05.

Going from C[C@@H](NC(=O)C[C@@H]1CC[C@H](NC(=O)CN2CCOCC2)[C@H](CO)O1)c1ccccc1 to O=C(C[C@H]1CC[C@@H](NC(=O)CN2CCOCC2)[C@H](CO)O1)NCCc1ccncc1, the relative growth rises from 1.01 to 1.02.

First: Cl.c1ccc(CC2=NCCN2)cc1
Second: c1ccc2c(c1)[nH]c1ncccc12
The relative growth of the first is higher: 1.06 for the first, 1.02 for the second.

Compared with COCC(=O)Nc1ccc2c(c1)OC[C@H](C)N(Cc1ccccc1F)C[C@H](C)[C@@H](OC)CN(C)C2=O, COCC(=O)Nc1ccc2c(c1)C(=O)N(C)C[C@@H](OC)[C@H](C)CN(Cc1ccccc1OC)[C@@H](C)CO2 is lower in relative growth: 1.04 for the first, 1.01 for the second.

Compared with CC(C(=O)O)c1ccc2c(c1)[nH]c1ccc(Cl)cc12 (stereo not drawn), CC(C(=O)O)c1ccc(-c2ccccc2)c(F)c1 (stereo not drawn) is higher in relative growth: 0.922 for the first, 0.937 for the second.

Going from C[C@H](CCC(=O)NCC(=O)O)[C@H]1CCC2C3C(C[C@H](O)[C@@]21C)[C@@]1(C)CC[C@@H](O)CC1C[C@H]3O (stereo partly drawn) to CCNC(=O)C[C@H]1CC[C@@H](NC(=O)C2CCOCC2)[C@H](CO)O1, the relative growth falls from 1.21 to 1.09.

Going from CC(C)NC(=O)N(C)C[C@H]1Oc2cc(-c3ccccc3F)ccc2S(=O)(=O)N([C@H](C)CO)C[C@H]1C to COc1ccccc1NC(=O)N(C)C[C@H]1Oc2cc(Br)ccc2S(=O)(=O)N([C@H](C)CO)C[C@@H]1C, the relative growth rises from 0.96 to 1.01.

Compared with COCCNC(=O)C[C@H]1CC[C@@H](NS(=O)(=O)c2ccc(C)cc2)[C@@H](CO)O1, O=C(C[C@H]1CC[C@H](NS(=O)(=O)c2ccc(F)cc2)[C@H](CO)O1)NCc1ccc(Cl)c(Cl)c1 is lower in relative growth: 1.01 for the first, 1 for the second.

Going from COc1cc(C(=O)NCc2ccc(OCCN(C)C)cc2)cc(OC)c1OC.Cl to COc1ccc(CNC(=S)NCCO)cc1, the relative growth falls from 0.975 to 0.757.

Compared with O=C1c2c(O)cccc2C([C@@H]2O[C@H](CO)[C@@H](O)[C@H](O)[C@H]2O)c2cc(CO)cc(O)c21 (stereo partly drawn), Cc1cc(O)c2c(c1)C(=O)c1cccc(O)c1C2=O is lower in relative growth: 0.916 for the first, 0.819 for the second.

Compared with NC(=O)N1C(=O)[C@H]2[C@H](C1=O)[C@H]1C=C(c3ccc(CO)cc3)[C@@H]2[C@@H](C2CC2)N1Cc1cc2c(cc1Br)OCO2, COc1cccc(-c2ccc3c(c2)O[C@@H](CN(C)C(=O)C2CC2)[C@H](C)CN([C@@H](C)CO)S3(=O)=O)c1 is higher in relative growth: 1.01 for the first, 1.02 for the second.

Compared with CCC(C)[C@H]1O[C@]2(C=C[C@@H]1C)C[C@@H]1C[C@@H](C/C=C(\C)[C@@H](OC3C[C@H](OC)C(O[C@H]4C[C@H](OC)[C@@H](NC(C)=O)[C@H](C)O4)[C@H](C)O3)[C@@H](C)/C=C/C=C3\CO[C@@H]4[C@H](O)C(C)=C[C@@H](C(=O)O1)[C@]34O)O2 (stereo partly drawn), COCC(=O)Nc1ccc2c(c1)C(=O)N(C)C[C@@H](OC)[C@@H](C)CN(C(=O)Cc1cccnc1)[C@@H](C)CO2 is higher in relative growth: 0.956 for the first, 0.964 for the second.

First: Cc1ccc(CN2CCN(CCO)CC2)o1
Second: CN1CCN(C(=O)C[C@H]2CC[C@H]3[C@@H](COC[C@H](O)CN3Cc3ccc4c(c3)OCO4)O2)CC1
The relative growth of the first is higher: 0.967 for the first, 0.887 for the second.

Going from CN(C)S(=O)(=O)c1ccc(C#N)cc1 to NS(=O)(=O)c1ccc(N2CCCC2=O)cc1, the relative growth falls from 0.933 to 0.884.

Going from CC(=O)C1C(=O)C=C(C)OC1=O (stereo not drawn) to CC1=C(C(=O)O)N2C(=O)[C@@H](NC(=O)[C@H](N)C3=CCC=CC3)C2SC1 (stereo partly drawn), the relative growth falls from 0.935 to 0.915.

Going from CO[C@H]1CN(C)C(=O)c2ccc(NS(=O)(=O)CC(F)(F)F)cc2OC[C@@H](C)N(Cc2nccs2)C[C@H]1C to CO[C@@H]1CN(C)C(=O)c2cc(NC(=O)C3CC3)ccc2OC[C@@H](C)N(C(=O)Cc2ccccn2)C[C@@H]1C, the relative growth falls from 1.04 to 1.03.

Going from CCOC(=O)CNC(=O)c1cnn2cccnc12 to CCOC(=O)c1cc(C(=O)OCC)n(C)n1, the relative growth rises from 0.949 to 0.96.

First: O=C1N[C@@H](Cc2c[nH]c3ccccc23)COC(=O)[C@@H](Cc2ccc(F)cc2)CCC=CC[C@H]1CC(=O)N(CCO)Cc1ccccc1
Second: Br.NC(=O)C(c1ccccc1)(c1ccccc1)C1CCN(CCc2ccc3c(c2)CCO3)C1 (stereo not drawn)
The relative growth of the first is higher: 1.34 for the first, 0.979 for the second.

Going from COCC#Cc1ccc2c(c1)O[C@@H](CN(C)C(=O)c1ccccc1F)[C@@H](C)CN([C@H](C)CO)S2(=O)=O to C[C@H]1CN([C@@H](C)CO)S(=O)(=O)c2ccc(C#CCN(C)C)cc2O[C@H]1CN(C)Cc1ccccc1F, the relative growth falls from 1.08 to 1.01.

Compared with C=CC[C@@H](CC(=O)N[C@H](CO)Cc1ccccc1)C(=O)NC[C@H](OC(=O)[C@@H](CC=C)Cc1ccc(F)cc1)c1ccccc1, Cc1ccc(S(=O)(=O)N[C@@H](Cc2ccccc2)C(=O)NCCn2cc(CCC(=O)NO)nn2)cc1 is higher in relative growth: 1.07 for the first, 1.25 for the second.

Compared with CO[C@H](CN(C)S(=O)(=O)c1ccc(Cl)cc1)[C@H](C)CN([C@H](C)CO)S(=O)(=O)c1cccc(Cl)c1, O=S(=O)(NCC[C@H]1CC[C@@H](NS(=O)(=O)c2cccc(Cl)c2)[C@H](CO)O1)c1cccc(F)c1 is higher in relative growth: 0.825 for the first, 1.04 for the second.

Going from CC[C@@]1(C)N[C@H](C(=O)O)CS1 to O=C(O)[C@H]1CCS(=O)(=O)C1, the relative growth rises from 0.991 to 1.13.

Compared with NCC[C@@H]1CC[C@@H](NC(=O)NC2CCCCC2)[C@H](CO)O1, O=C(CN1CCOCC1)N[C@@H]1CC[C@H](CCNC(=O)C2CCCCC2)O[C@H]1CO is lower in relative growth: 1.11 for the first, 0.967 for the second.

Compared with COC(=O)[C@@H](C)N(C#N)c1nc(C)nc(C)n1, CC(C[N+](C)(C)C)OC(N)=O.[Cl-] (stereo not drawn) is lower in relative growth: 0.942 for the first, 0.928 for the second.

Compared with COc1ccc([C@@H]([C@H](Cc2ccccc2)OC(C)=O)N2C[C@@H](NC(=O)C(Cl)(Cl)Cl)[C@@H]3[C@H]([C@@H]2Cc2ccccc2)N(C)O[C@H]3c2ccccc2)cc1, O=C1O[C@@H](c2ccccc2)[C@@H](c2ccccc2)N2[C@@H](c3ccc(OCCO)cc3)[C@]3(C(=O)Nc4ccc(C#CC5(O)CCCCCC5)cc43)[C@@H](C(=O)Nc3nc4ccccc4s3)[C@H]12 is lower in relative growth: 0.966 for the first, 0.904 for the second.

Going from CC(C)C#Cc1ccc2c(c1)O[C@@H](CN(C)C(=O)c1cccc(F)c1)[C@H](C)CN([C@@H](C)CO)S2(=O)=O to CC(=O)N(C)C[C@H]1Oc2cc(C#CCN(C)C)ccc2S(=O)(=O)N([C@H](C)CO)C[C@@H]1C, the relative growth rises from 0.855 to 0.987.

First: COc1ccc(COC[C@@]23Oc4ccccc4[C@@H](NC(=S)N2C)[C@H]3CO[Si](C)(C)C(C)(C)C)cc1
Second: COc1ccc(CNC(=O)C[C@@H]2C[C@H]3c4cc(NS(=O)(=O)c5ccc(F)cc5)ccc4O[C@H]3[C@H](CO)O2)cc1
The relative growth of the first is higher: 1.1 for the first, 0.866 for the second.

Compared with Cc1ccc(S(=O)(=O)NCC[C@H]2CC[C@H](NS(=O)(=O)c3ccccc3Cl)[C@H](CO)O2)cc1, COc1ccc(NC(=O)N[C@@H]2CC[C@H](CCNC(=O)CN3CCOCC3)O[C@@H]2CO)cc1 is lower in relative growth: 1.11 for the first, 1.05 for the second.

First: O=C(CN1CCOCC1)NCC[C@H]1CC[C@@H](NC(=O)c2ccc3c(c2)OCO3)[C@H](CO)O1
Second: COC(=O)C[C@H]1CC[C@H]2[C@@H](COC[C@H](O)CN2S(=O)(=O)c2ccc(F)cc2)O1
The relative growth of the first is higher: 1.1 for the first, 0.948 for the second.

Going from NC(=O)c1cn(Cc2c(F)cccc2F)nn1 to NC(=O)CN1C(=O)C(=O)c2cc(Cl)ccc21, the relative growth rises from 0.9 to 0.967.

Compared with O=C(OCC(O)CO)c1ccccc1Nc1ccnc2cc(Cl)ccc12 (stereo not drawn), C[C@@H](Cc1c[nH]c2ccccc12)NC(=O)CN is higher in relative growth: 0.932 for the first, 0.983 for the second.

First: C[N+](C)(C)CCCC[C@@H]1NC(=O)[C@H]2C[C@@H](C(=O)NCc3ccc(F)cc3)[C@@H](c3ccc(O)cc3)N2C1=O
Second: C=CCOC(=O)[C@@H]1[C@H]2C(=O)O[C@H](c3ccccc3)[C@H](c3ccccc3)N2[C@H](c2ccc(OCCOC(=O)[C@H]3C[C@H]4C(=O)N5CCC[C@H]5C(=O)N4[C@H]3c3ccc(O)cc3)cc2)[C@@]12C(=O)Nc1ccccc12
The relative growth of the first is lower: 0.841 for the first, 0.943 for the second.

Compared with O=C(NO)c1ccc(C(=O)N/N=C/[C@H](O)[C@H](O)[C@@H](O)[C@@H](O)CO)cc1, O=C(/C=C/c1ccc(O)cc1)c1ccc(O)cc1O is lower in relative growth: 1.14 for the first, 1.05 for the second.

First: C[C@@H]1CN([C@H](C)CO)S(=O)(=O)c2ccc(Br)cc2O[C@@H]1CN(C)C(=O)C1CCCCC1
Second: C[C@H](CO)N1C[C@H](C)[C@H](CN(C)S(=O)(=O)c2ccccc2F)Oc2cc(C#Cc3cccc(F)c3)ccc2S1(=O)=O
The relative growth of the first is lower: 1.02 for the first, 1.05 for the second.

First: CN(C)C=C(C=[N+](C)C)c1[nH]ncc1N
Second: CC(C)NC(=O)N[C@@H]1C=C[C@H](CC(=O)NCCCN(C)C)O[C@@H]1CO
The relative growth of the first is higher: 1.14 for the first, 0.858 for the second.

Going from CC(C)Cc1ccc([C@@H](C)c2nc(-c3cccs3)no2)cc1 to CCOc1cc(OCC)cc(C(=O)N[C@@H](Cc2ccc(-n3cc(CCC(=O)NO)nn3)cc2)C(=O)OC)c1, the relative growth falls from 1.08 to 0.902.

Compared with CN[C@H](CC(C)C)C(=O)NC1C(=O)N[C@@H](CC(N)=O)C(=O)N[C@H]2C(=O)NC3C(=O)N[C@H](C(=O)N[C@@H](C(=O)O)c4cc(O)cc(O)c4-c4cc3ccc4O)[C@H](O)c3ccc(c(Cl)c3)Oc3cc2cc(c3O[C@@H]2OC(CO)[C@@H](O)[C@H](O)[C@H]2O[C@H]2C[C@](C)(N)[C@H](O)[C@H](C)O2)Oc2ccc(cc2Cl)[C@H]1O.Cl (stereo partly drawn), Cc1c(NC(=O)c2cccnc2)c(=O)n(-c2ccccc2)n1C is higher in relative growth: 0.967 for the first, 1.02 for the second.

Going from CS(=O)(=O)OCCCCOS(C)(=O)=O to OCc1c[nH]c2ccccc12, the relative growth falls from 1 to 0.923.
